Source: ChEMBL document CHEMBL2406973, “Synthesis of novel diarylamino-1,3,5-triazine derivatives as FAK inhibitors with anti-angiogenic activity” (Bioorg Med Chem Lett, 2013)

Amino acid sequences for entries named in this document (tags omitted).
UniProt Q05397, whole entry: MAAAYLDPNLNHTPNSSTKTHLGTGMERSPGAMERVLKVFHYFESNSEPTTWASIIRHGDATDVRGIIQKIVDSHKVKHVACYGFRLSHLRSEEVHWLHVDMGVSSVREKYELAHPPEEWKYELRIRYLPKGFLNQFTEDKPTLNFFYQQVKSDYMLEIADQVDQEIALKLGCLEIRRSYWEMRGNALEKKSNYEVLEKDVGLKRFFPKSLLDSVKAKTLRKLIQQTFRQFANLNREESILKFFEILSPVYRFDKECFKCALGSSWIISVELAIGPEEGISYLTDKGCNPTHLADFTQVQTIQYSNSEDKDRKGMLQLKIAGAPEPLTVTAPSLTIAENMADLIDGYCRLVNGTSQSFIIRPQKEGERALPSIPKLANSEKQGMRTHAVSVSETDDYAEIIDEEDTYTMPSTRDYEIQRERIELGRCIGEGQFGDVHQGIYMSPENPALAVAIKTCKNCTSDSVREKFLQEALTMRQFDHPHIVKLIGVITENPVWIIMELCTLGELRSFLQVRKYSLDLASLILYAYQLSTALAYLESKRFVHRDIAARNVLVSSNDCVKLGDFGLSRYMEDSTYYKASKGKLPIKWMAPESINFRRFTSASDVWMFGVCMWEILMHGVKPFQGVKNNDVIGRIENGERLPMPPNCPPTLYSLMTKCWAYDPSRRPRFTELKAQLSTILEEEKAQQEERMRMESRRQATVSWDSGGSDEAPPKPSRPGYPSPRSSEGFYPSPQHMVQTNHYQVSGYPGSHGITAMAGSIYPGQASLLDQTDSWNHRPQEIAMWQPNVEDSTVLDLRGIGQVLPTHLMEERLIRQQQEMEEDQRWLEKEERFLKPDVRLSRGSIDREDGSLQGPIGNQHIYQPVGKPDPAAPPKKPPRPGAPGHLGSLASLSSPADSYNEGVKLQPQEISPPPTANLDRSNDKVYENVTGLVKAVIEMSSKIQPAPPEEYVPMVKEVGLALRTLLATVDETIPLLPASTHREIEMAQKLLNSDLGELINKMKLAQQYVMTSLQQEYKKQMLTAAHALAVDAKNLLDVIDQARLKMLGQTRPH

Target: Focal adhesion kinase 1 (Homo sapiens, UniProt Q05397)
Experiment: Inhibition of pre-activated recombinant full length FAK (unknown origin) using ULight labeled poly(Glu/Tyr) as substrate after 1.6 hrs by TR-FRET assay

IC50: 320 nM
SMILES: CNC(=O)c1ccccc1Nc1ncnc(Nc2ccc(N3CCOCC3)cc2OC)n1
